## Antibody variant affinities, Ab-14 light chain, assay 1

Values reported by Engelhart et al. 2022, doi:10.1038/s41597-022-01779-4 (FLAb copy).

Target peptide (SARS-CoV-2 spike, HR2 region): PDVDLGDISGINAS

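Phage display of a naive human antibody library on the peptide gave the parent. The library (AAYL50) carries one to three amino acid substitutions per variant, with no insertions or deletions. In AlphaSeq, yeast of one mating type display the scFv and yeast of the other type display the target. Pairs that bind mate more often; barcode pairs of the diploids are counted by sequencing. Scores were corrected for input abundance and mapped to Kd with protein pairs of known affinity run in the same pool. The assay was run in three technical replicates.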

Ab-14 is the parent antibody, in scFv form: VH, then a 15-residue (Gly4Ser)3 linker, then VL. The heavy chain is unchanged in all variants.
VH: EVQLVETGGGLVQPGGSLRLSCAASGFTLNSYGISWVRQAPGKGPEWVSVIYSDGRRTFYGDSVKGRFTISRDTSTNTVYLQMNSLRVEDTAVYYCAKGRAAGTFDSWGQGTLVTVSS
VL: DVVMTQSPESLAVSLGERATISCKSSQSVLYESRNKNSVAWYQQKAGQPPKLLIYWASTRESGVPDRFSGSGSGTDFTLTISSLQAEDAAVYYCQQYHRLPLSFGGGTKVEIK

The parent's light chain CDRs are KSSQSVLYESRNKNSVA, WASTRES, QQYHRLPLS; each variant's own CDRs replace them letter for letter.
Values are log10 of the apparent Kd in nM; lower means stronger binding.
The mean shown is taken over the replicates in which the pair was detected.
A pair that was not seen in any replicate is written "not detected"; this usually means weak binding, but a binder can also be missed.
For reference, the parent read 0.65 as the reference entry and 1.68 as a member of this library.
Three control strains display no target. For library AAYL50, 18% of the pairings with them gave a signal, with a median of 4.19 and one signal in twenty below 2.99, so weak values seen in few replicates may be background.

{"CDR-L1": "KSSQSDLYESRNKNSVA", "CDR-L2": "WASTFES", "CDR-L3": "QQYHRLPLS", "log10 Kd (nM), mean": "not detected", "seen in": "0 of 3"}
{"CDR-L1": "GSSQSSLYESRNKNSVA", "CDR-L2": "WASTRES", "CDR-L3": "QKYHRLPLS", "log10 Kd (nM), mean": "not detected", "seen in": "0 of 3"}
{"CDR-L1": "KSSQSFLWESRNCNSVA", "CDR-L2": "WASTRES", "CDR-L3": "QQYHRLPLS", "log10 Kd (nM), mean": "1.32", "seen in": "3 of 3"}
{"CDR-L1": "KSSQSVLYESRNKNSVA", "CDR-L2": "WASTREE", "CDR-L3": "QQYFRLALS", "log10 Kd (nM), mean": "1.24", "seen in": "3 of 3"}
{"CDR-L1": "KSSWSVLTESRNKNSVA", "CDR-L2": "WASRRES", "CDR-L3": "QQYHRLPLS", "log10 Kd (nM), mean": "1.40", "seen in": "3 of 3"}
{"CDR-L1": "KSSQSVSYESRNKNSVA", "CDR-L2": "WASYRES", "CDR-L3": "LQYHRLPLS", "log10 Kd (nM), mean": "2.35", "seen in": "2 of 3"}
{"CDR-L1": "KSSQSVLYESRNMNSVA", "CDR-L2": "WCSTRES", "CDR-L3": "QQYHHLPLS", "log10 Kd (nM), mean": "1.58", "seen in": "3 of 3"}
{"CDR-L1": "KSSQSVLYESRNKNSVA", "CDR-L2": "WASTRES", "CDR-L3": "QQYHKLPLC", "log10 Kd (nM), mean": "3.65", "seen in": "3 of 3"}
{"CDR-L1": "KSYQSVLYKSRWKNSVA", "CDR-L2": "WASTRES", "CDR-L3": "QQYHRLPLS", "log10 Kd (nM), mean": "3.77", "seen in": "2 of 3"}
{"CDR-L1": "KSCQSDLYESRNKNSVA", "CDR-L2": "WASTRES", "CDR-L3": "QQYHILPLS", "log10 Kd (nM), mean": "2.72", "seen in": "3 of 3"}
{"CDR-L1": "KSSQSVLYESRNCSSVA", "CDR-L2": "WASTRIS", "CDR-L3": "QQYHRLPLS", "log10 Kd (nM), mean": "1.05", "seen in": "3 of 3"}
{"CDR-L1": "CSSHSVLYESRNKNQVA", "CDR-L2": "WASTRES", "CDR-L3": "QQYHRLPLS", "log10 Kd (nM), mean": "not detected", "seen in": "0 of 3"}
{"CDR-L1": "KWSFSSLYESRNKNSVA", "CDR-L2": "WASTRES", "CDR-L3": "QQYHRLPLS", "log10 Kd (nM), mean": "0.41", "seen in": "3 of 3"}
{"CDR-L1": "KSSQSVLYESRNKNSVA", "CDR-L2": "WASTREV", "CDR-L3": "QQYHRQPLS", "log10 Kd (nM), mean": "2.35", "seen in": "1 of 3"}
{"CDR-L1": "KSSQSVLYESRPKNSVA", "CDR-L2": "WAKTAES", "CDR-L3": "QQYHRLPLS", "log10 Kd (nM), mean": "6.06", "seen in": "1 of 3"}
{"CDR-L1": "KSSQSVLYRSRTKNSVA", "CDR-L2": "WASTRES", "CDR-L3": "QEYHRLPLS", "log10 Kd (nM), mean": "2.90", "seen in": "3 of 3"}
{"CDR-L1": "KSSQSVHYESRNKNSVA", "CDR-L2": "WASTRES", "CDR-L3": "HQYHRLPLP", "log10 Kd (nM), mean": "2.64", "seen in": "3 of 3"}
{"CDR-L1": "KSSQSVLYRERNKNSVA", "CDR-L2": "WASTRES", "CDR-L3": "QHYHRLPLS", "log10 Kd (nM), mean": "1.95", "seen in": "3 of 3"}
{"CDR-L1": "KSSESVLYEGRNKNSVA", "CDR-L2": "WRSTRES", "CDR-L3": "QQYHRLPLS", "log10 Kd (nM), mean": "1.84", "seen in": "3 of 3"}
{"CDR-L1": "KSSQSVLYERRNKNSVA", "CDR-L2": "WASTRES", "CDR-L3": "QQYHRLDLS", "log10 Kd (nM), mean": "2.34", "seen in": "3 of 3"}
{"CDR-L1": "VSQQSVLYESRNKNSVA", "CDR-L2": "WASTRES", "CDR-L3": "QQYHRLPLS", "log10 Kd (nM), mean": "not detected", "seen in": "0 of 3"}
{"CDR-L1": "KKSQSVLYESRNKNTVA", "CDR-L2": "WASTREK", "CDR-L3": "QQYHRLPLS", "log10 Kd (nM), mean": "not detected", "seen in": "0 of 3"}
{"CDR-L1": "KSSQSFLYEYRNKNSVA", "CDR-L2": "WASTRES", "CDR-L3": "QQYHRLNLS", "log10 Kd (nM), mean": "1.27", "seen in": "3 of 3"}
{"CDR-L1": "KKSQSVLYESRNKNSVA", "CDR-L2": "WASTRES", "CDR-L3": "QQYHRLVLV", "log10 Kd (nM), mean": "3.35", "seen in": "1 of 3"}
{"CDR-L1": "KMSQSVLYESRNKNSVA", "CDR-L2": "WAYTRES", "CDR-L3": "QQYHRCPLS", "log10 Kd (nM), mean": "not detected", "seen in": "0 of 3"}
{"CDR-L1": "KSSQSVLYESRNKNSQA", "CDR-L2": "WASTRES", "CDR-L3": "QQYCRLPLH", "log10 Kd (nM), mean": "not detected", "seen in": "0 of 3"}
{"CDR-L1": "HSSQSYLYESRNKNSVA", "CDR-L2": "WASTRES", "CDR-L3": "QQYHRLPLS", "log10 Kd (nM), mean": "1.85", "seen in": "3 of 3"}
{"CDR-L1": "KSSQSVLYESRNKNSVA", "CDR-L2": "WASMRES", "CDR-L3": "QQPHRDPLS", "log10 Kd (nM), mean": "5.69", "seen in": "1 of 3"}
{"CDR-L1": "KSSQSKLYESRNKNSVA", "CDR-L2": "WASVRES", "CDR-L3": "QQYHRLPRS", "log10 Kd (nM), mean": "not detected", "seen in": "0 of 3"}
{"CDR-L1": "KSSQSVGYESRNKNSVA", "CDR-L2": "WASTRES", "CDR-L3": "QQVYRLPLS", "log10 Kd (nM), mean": "6.18", "seen in": "1 of 3"}
{"CDR-L1": "KWSQSVVYESRNKNSVA", "CDR-L2": "WASTRNS", "CDR-L3": "QQYHRLPLS", "log10 Kd (nM), mean": "1.29", "seen in": "3 of 3"}
{"CDR-L1": "KSSQSVLYESSNKNSVA", "CDR-L2": "WASTRES", "CDR-L3": "QQYHRLPYS", "log10 Kd (nM), mean": "not detected", "seen in": "0 of 3"}

2 of these entries, quoted again:

CDR-L1	CDR-L2	CDR-L3	log10 Kd (nM), mean	seen in
KSSQSVHYESRNKNSVA	WASTRES	HQYHRLPLP	2.64	3 of 3
KWSFSSLYESRNKNSVA	WASTRES	QQYHRLPLS	0.41	3 of 3